# Test results reported in patent publication US8440810B2, “Riboswitches, methods for their use, and compositions for use with riboswitches” (Yale University, priority 2002, dated 2013).
# What was measured:
# [1] = tested on: 93 xpt RNA (C to U mutation at position 74); assay: In-line probing and equilibrium dialysis of 93 xpt C to U mutant; assay type: binding, B. subtilis
# [2] = tested on: ydhL RNA from B. subtilis and the two add RNAs from C. perfringens and V. vulnificus; assay: In-line probing of the three G box RNAs that carry the C to U mutation; settings: 1 μM ligand
# [3] = tested on: 80 ydhL RNA (U to C mutation); assay: In-line probing and equilibrium dialysis of 80 ydhL U to C mutant
smiles,measurement,setting,value
Nc1nc2nc[nH]c2c(=O)[nH]1 [guanine],structural modulation and binding in equilibrium dialysis,[1],no longer is responsive to guanine
same,structural modulation,[2],do not respond to guanine
same,affinity poorer than that of 93 xpt,[3],at least 10 fold
same,binding specificity,[3],alters binding specificity to guanine
Nc1ncnc2nc[nH]c12 [adenine],structural modulation,[2],exhibit structural modulation only when incubated in the presence of adenine
